Experimental data as given in patent publication US9085555B2, “Complement pathway modulators and uses thereof” (priority 2011, dated 2015).

Protein sequences, listed by entry. Tags and fused reporters are not part of them. Residues count along the entry.
UniProt P00746, 26-253: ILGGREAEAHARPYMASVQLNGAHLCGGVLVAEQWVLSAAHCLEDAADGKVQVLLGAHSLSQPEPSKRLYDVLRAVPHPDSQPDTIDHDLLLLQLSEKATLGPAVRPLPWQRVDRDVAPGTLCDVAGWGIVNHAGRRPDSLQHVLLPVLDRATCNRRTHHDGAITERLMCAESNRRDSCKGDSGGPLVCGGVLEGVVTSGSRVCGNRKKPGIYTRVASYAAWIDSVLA

Target: Factor D (Homo sapiens (Human), UniProt P00746)
Format: biochemical

SMILES | IC50
NC(=O)n1cc(NC(=O)N2C[C@H](F)C[C@H]2CNC(=O)Oc2ccccc2)c2ccccc21 [Example 114, [(2S,4R)-1-(1-Carbamoyl-1H-indol-3-ylcarbamoyl)-4-fluoro-pyrrolidin-2-ylmethyl]-carbamic acid phenyl ester] | 500 nM
NC(=O)n1cc(NC(=O)N2[C@H](CNC(=O)Oc3cccc(Cl)c3F)C[C@H]3C[C@H]32)c2ccccc21 [Example 115, [(1R,3S,5R)-2-(1-Carbamoyl-1H-indol-3-ylcarbamoyl)-2-aza-bicyclo[3.1.0]hex-3-ylmethyl]-carbamic acid 3-chloro-2-fluoro-phenyl ester] | 1540 nM
